Active and inactive are the calls of the source. The rule behind the calls is not given here.
How the values were obtained:
[1] = target: T1, Poly [ADP-ribose] polymerase 1 (Homo sapiens, UniProt P09874); test: Inhibition of PARP1 (unknown origin) at 1 uM incubated for 1 hr by ELISA relative to control
MDA-MB-231 [2] = test: Induction of apoptosis in human MDA-MB-231 cells assessed as decrease in Mcl-1 protein level incubated for 24 hrs by Western blotting analysis; type: functional, cell-based; conditions: dose 0.2-10 µM
[3] = target: T1, Poly [ADP-ribose] polymerase 1; test: Inhibition of PARP in human MDA-MB-231 cells assessed as decrease in PARP expression level at 1 uM incubated for 24 hrs by Western blotting analysis; type: cell-based
MDA-MB-231 [4] = test: Inhibition of cell migration in human MDA-MB-231 cells incubated for 24 hrs by wound healing assay; type: functional, cell-based; conditions: dose 0.2-10 µM

The chains behind the UniProt entries cited, without tags or fusion partners.
UniProt P09874, whole entry: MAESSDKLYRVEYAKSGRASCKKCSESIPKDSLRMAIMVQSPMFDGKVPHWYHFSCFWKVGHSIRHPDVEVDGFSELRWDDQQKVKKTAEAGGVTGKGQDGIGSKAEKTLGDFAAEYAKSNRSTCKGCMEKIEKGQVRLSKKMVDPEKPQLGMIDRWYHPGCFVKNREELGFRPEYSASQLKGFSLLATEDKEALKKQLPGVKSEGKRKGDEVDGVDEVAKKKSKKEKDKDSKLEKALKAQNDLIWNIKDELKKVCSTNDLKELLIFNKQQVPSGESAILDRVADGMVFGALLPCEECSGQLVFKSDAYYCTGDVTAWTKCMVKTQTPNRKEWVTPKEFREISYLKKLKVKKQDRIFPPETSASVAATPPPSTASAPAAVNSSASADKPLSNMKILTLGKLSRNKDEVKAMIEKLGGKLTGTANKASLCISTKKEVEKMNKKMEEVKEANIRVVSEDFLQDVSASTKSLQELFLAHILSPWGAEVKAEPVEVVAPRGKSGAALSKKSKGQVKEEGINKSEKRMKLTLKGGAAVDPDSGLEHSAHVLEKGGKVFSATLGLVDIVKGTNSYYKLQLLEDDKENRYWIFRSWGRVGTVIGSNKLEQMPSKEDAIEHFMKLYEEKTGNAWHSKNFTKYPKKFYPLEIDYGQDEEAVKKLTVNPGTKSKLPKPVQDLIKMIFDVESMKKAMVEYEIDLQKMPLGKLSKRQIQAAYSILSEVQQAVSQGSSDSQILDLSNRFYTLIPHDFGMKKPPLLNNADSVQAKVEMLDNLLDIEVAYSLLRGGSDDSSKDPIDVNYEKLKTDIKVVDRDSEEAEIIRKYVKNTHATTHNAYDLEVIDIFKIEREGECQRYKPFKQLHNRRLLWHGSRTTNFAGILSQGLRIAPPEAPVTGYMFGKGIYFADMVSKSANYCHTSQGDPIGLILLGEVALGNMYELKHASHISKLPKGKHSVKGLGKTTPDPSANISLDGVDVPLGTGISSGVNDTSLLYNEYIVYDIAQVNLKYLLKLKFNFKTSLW

inhibition [1] [%]	Compound	further results
92	COc1ccc(-c2cc(Nc3cc(CN4CCN(C(=O)c5cc(Cc6n[nH]c(=O)c7ccccc67)ccc5F)CC4)ccn3)ncn2)c(F)c1	
95	COc1cc(C(F)(F)F)ccc1-c1cc(Nc2cc(CN3CCN(C(=O)c4cc(Cc5n[nH]c(=O)c6ccccc56)ccc4F)CC3)ccn2)ncn1	
90	COc1ccc(-c2cc(Nc3cc(CN4CCN(C(=O)c5cc(Cc6n[nH]c(=O)c7ccccc67)ccc5F)CC4)ccn3)ncc2F)c(F)c1	

More lines, now with the values behind:

Compound	inhibition [1] [%]	further results
COc1cc(C(F)(F)F)ccc1-c1cc(Nc2cc(CN3CCN(C(=O)c4cc(Cc5n[nH]c(=O)c6ccccc56)ccc4F)CC3)ccn2)ncc1F	94	
COc1cc(F)ccc1-c1nc(Nc2ccc(N3CCN(C(=O)c4cc(Cc5n[nH]c(=O)c6ccccc56)ccc4F)CC3)cn2)ncc1F	78	
COc1cc(F)ccc1-c1nc(NC(=O)N2CCN(C(=O)c3cc(Cc4n[nH]c(=O)c5ccccc45)ccc3F)CC2)ncc1F	95	
COc1cc(F)ccc1-c1cc(Nc2nccc(N3CCN(C(=O)c4cc(Cc5n[nH]c(=O)c6ccccc56)ccc4F)CC3)n2)ncn1	97	
CCOc1cc(F)ccc1-c1cc(Nc2cc(CN3CCN(C(=O)c4cc(Cc5n[nH]c(=O)c6ccccc56)ccc4F)CC3)ccn2)ncn1		Activity (MDA-MB-231 [2]): Dose-dependent-effect; inhibition [3]: Active; inhibition (MDA-MB-231 [4]): Dose-dependent-effect
COc1ccc(OC)c(-c2cc(Nc3cc(CN4CCN(C(=O)c5cc(Cc6n[nH]c(=O)c7ccccc67)ccc5F)CC4)ccn3)ncc2F)c1	95	
COc1cc(F)ccc1-c1cc(Nc2nccc(N3CCN(C(=O)c4cc(Cc5n[nH]c(=O)c6ccccc56)ccc4F)CC3)n2)ncc1F	95	

Reference: ChEMBL document CHEMBL6114988, “Design, synthesis and biological evaluation of dual CDK9/PARP inhibitors for the treatment of cancer” (Eur J Med Chem, 2025)
